Experiments:
Mu-type opioid receptor = Mu-type opioid receptor (Homo sapiens, UniProt P35372); assay: Binding affinity towards human opioid receptor mu 1 was determined by using [3H]diprenorphine as radioligand expressed in Chinese hamster ovary (CHO) cells
Nociceptin receptor [1] = target: T1, Nociceptin receptor (Homo sapiens, UniProt P41146); assay: Inhibitory concentration measured by cellular decreases in forskolin stimulated cAMP in CHO cells stably transfected with hORL1 receptor
Nociceptin receptor [2] = target: T1, Nociceptin receptor; assay: Binding affinity towards human opioid receptor like 1 was determined by using [3H]nociceptin as radioligand expressed in Chinese hamster ovary (CHO) cells

Sequences of proteins named here, by UniProt entry; tags and fusion partners are left off.
UniProt P35372, whole entry: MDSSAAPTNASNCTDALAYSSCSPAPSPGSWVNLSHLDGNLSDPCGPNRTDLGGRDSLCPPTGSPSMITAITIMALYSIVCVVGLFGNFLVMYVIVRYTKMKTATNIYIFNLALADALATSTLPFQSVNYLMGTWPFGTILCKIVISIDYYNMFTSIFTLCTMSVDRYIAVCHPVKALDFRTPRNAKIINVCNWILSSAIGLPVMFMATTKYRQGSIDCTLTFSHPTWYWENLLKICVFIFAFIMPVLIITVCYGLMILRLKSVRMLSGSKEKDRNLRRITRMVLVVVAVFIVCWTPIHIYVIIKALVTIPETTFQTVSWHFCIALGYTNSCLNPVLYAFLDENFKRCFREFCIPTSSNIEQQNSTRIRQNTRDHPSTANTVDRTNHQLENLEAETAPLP
UniProt P41146, whole entry: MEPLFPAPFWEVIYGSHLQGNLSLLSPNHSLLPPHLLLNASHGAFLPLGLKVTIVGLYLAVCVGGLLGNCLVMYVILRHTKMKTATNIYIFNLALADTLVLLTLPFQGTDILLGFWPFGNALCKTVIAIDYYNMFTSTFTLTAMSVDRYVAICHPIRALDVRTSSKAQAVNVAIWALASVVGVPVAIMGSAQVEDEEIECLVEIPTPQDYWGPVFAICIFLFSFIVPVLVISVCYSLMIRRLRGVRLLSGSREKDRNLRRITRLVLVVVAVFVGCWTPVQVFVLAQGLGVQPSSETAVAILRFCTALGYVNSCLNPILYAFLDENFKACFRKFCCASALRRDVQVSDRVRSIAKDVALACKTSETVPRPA

SMILES | Ki (Mu-type opioid receptor) [nM] | IC50 (Nociceptin receptor [1]) [nM] | Ki (Nociceptin receptor [2]) [nM]
CC(C)C(CCN1CCC(n2c(O)nc3ccccc32)CC1)Oc1ccccc1C(F)(F)F (stereo not given) | 24 | 1730 | 24
Cc1ccc(Cl)c(OC(CCN2CCC(n3c(O)nc4ccccc43)CC2)c2ccccc2)c1 (stereo not given) | 16.7 | 240 | 8.3
CC(C)c1ccccc1OC(CCN1CCC(n2c(=O)[nH]c3ccccc32)CC1)C(C)C (stereo not given) | 20 | – | 113
CCCC(Oc1cc(C)ccc1Cl)C(O)CN1CCC(n2c(=O)[nH]c3ccccc32)CC1 (stereo not given) | 27 | 1060 | 20
CCc1ccccc1OC(CCN1CCC(n2c(=O)[nH]c3ccccc32)CC1)C(C)C (stereo not given) | 23 | – | 37
Cc1ccccc1OC(CCN1CCC(n2c(O)nc3ccccc32)CC1)C(C)C (stereo not given) | 21 | – | 42

Source: ChEMBL document CHEMBL1144273, “Synthesis and SAR studies of 3-phenoxypropyl piperidine analogues as ORL1 (NOP) receptor agonists” (Bioorg Med Chem Lett, 2005)
